Measured values as given in patent US6875777B2, “Compounds” (AstraZeneca AB, priority 1999, dated 2005).

Tests used:
[1] = biological target: HDELTA (Homo sapiens, UniProt P41143); assay: HDELTA agonist potency and efficacy (EC50, % EMAX); conditions: for EC50: read-out: HDELTA EC50
[2] = biological target: cloned human δ receptor (HDELTA) (Homo sapiens, UniProt P41143); assay: Binding assay on membranes of human 293S cells expressing cloned human δ receptor (HDELTA); conditions: read-out: HDELTA, quantity and unit inferred

SMILES	HDELTA % EMAX [1] [%]	EC50 [1] [nM]	IC50 [2] [nM]
CCN(CC)C(=O)c1ccc(N(c2cccc(O)c2)C2CCN(Cc3c[nH]cn3)CC2)cc1	105.52	14.1	1.61
CCN(CC)C(=O)c1ccc(N(c2cccc(O)c2)C2CCN(Cc3ccncc3)CC2)cc1	114.6	3.92	1.02
CCN(CC)C(=O)c1ccc(N(c2cccc(O)c2)C2CCN(Cc3nccn3C)CC2)cc1	87.74	13.3	1.71
CCN(CC)C(=O)c1ccc(N(c2cccc(O)c2)C2CCN(Cc3ccccc3)CC2)cc1 [Example 1]	105.4	0.61	0.436
CCN(CC)C(=O)c1ccc(N(c2cc(O)ccc2F)C2CCN(Cc3ccccc3)CC2)cc1 [Example 6, N,N-diethyl-4-[(2-fluoro-5-hydroxyphenyl)[1-(phenylmethyl)-4-piperidinyl]amino]-benzamide]	107.1	0.21	0.466
CCN(CC)C(=O)c1ccc(N(c2cccc(O)c2)C2CCN(Cc3ccoc3)CC2)cc1 [Example 15, N,N-diethyl-4-[[1-(3-furanylmethyl)-4-piperidinyl](3-hydroxyphenyl)amino]-benzamide]	104.82	0.22	0.221
CCN(CC)C(=O)c1ccc(N(c2cccc(O)c2)C2CCN(Cc3ccsc3)CC2)cc1 [Example 16, N,N-diethyl-4-[(3-hydroxyphenyl)[1-(3-thienylmethyl)-4-piperidinyl]amino]-benzamide]	96.86	0.22	0.271
CCN(CC)C(=O)c1ccc(N(c2cccc(O)c2)C2CCN(Cc3ccc(I)cc3)CC2)cc1 [Example 19, N,N-diethyl-4-[(3-hydroxyphenyl)[1-[(4-iodophenyl)methyl]-4-piperidinyl]amino]-benzamide]	103.63	1.26	1.3
CCN(CC)C(=O)c1ccc(N(c2cccc(O)c2)C2CCN(Cc3ccc(Br)cc3)CC2)cc1 [Example 20, N,N-diethyl-4-[[1-[(4-bromophenyl)methyl]-4-piperidinyl](3-hydroxyphenyl)amino]-benzamide]	99.86	0.98	1.32
CCN(CC)C(=O)c1ccc(N(c2cccc(O)c2)C2CCN(Cc3ccc(Cl)cc3)CC2)cc1 [Example 21, N,N-diethyl-4-[[1-[(4-chlorophenyl)methyl]-4-piperidinyl](3-hydroxyphenyl)amino]-benzamide]	98.72	1.52	0.987
CCN(CC)C(=O)c1ccc(N(c2cccc(O)c2)C2CCN(Cc3ccc(F)cc3)CC2)cc1 [Example 22, N,N-diethyl-4-[[1-[(4-fluorophenyl)methyl]-4-piperidinyl](3-hydroxyphenyl)amino]-benzamide]	109.06	1.23	2.13
CCN(CC)C(=O)c1ccc(N(c2cccc(O)c2)C2CCN(Cc3ccc(Cl)cc3Cl)CC2)cc1 [Example 23, 4-[[1-[(2,4-dichlorophenyl)methyl]-4-piperidinyl](3-hydroxyphenyl)amino]-N,N-diethyl-benzamide]	98.85	0.4	1.44
CCN(CC)C(=O)c1ccc(N(c2cccc(O)c2)C2CCN(Cc3cccc(F)c3)CC2)cc1 [Example 24, N,N-diethyl-4-[[1-[(3-fluorophenyl)methyl]-4-piperidinyl](3-hydroxyphenyl)amino]-benzamide]	92.31	2.63	0.704
CCN(CC)C(=O)c1ccc(N(c2cccc(O)c2)C2CCN(Cc3ccccc3F)CC2)cc1 [Example 25, N,N-diethyl-4-[[1-[(2-fluorophenyl)methyl]-4-piperidinyl](3-hydroxyphenyl)amino]-benzamide]	111.21	1.13	0.763
CCN(CC)C(=O)c1ccc(N(c2cccc(O)c2)C2CCN(Cc3ccc(C)cc3)CC2)cc1 [Example 26, N,N-diethyl-4-[(3-hydroxyphenyl)[1-[(4-methylphenyl)methyl]-4-piperidinyl]amino]-benzamide]	104.65	1.14	0.641
CCN(CC)C(=O)c1ccc(N(c2cccc(O)c2)C2CCN(Cc3ccco3)CC2)cc1 [Example 27, N,N-diethyl-4-[[1-(2-furanylmethyl)-4-piperidinyl](3-hydroxyphenyl)amino]-benzamide]	101.34	1.29	0.416
CCN(CC)C(=O)c1ccc(N(c2cccc(O)c2)C2CCN(Cc3cccs3)CC2)cc1 [Example 28, N,N-diethyl-4-[(3-hydroxyphenyl)[1-(2-thienylmethyl)-4-piperidinyl]amino]-benzamide]	106.46	0.7	0.651
CCN(CC)C(=O)c1ccc(N(c2cccc(O)c2)C2CCN(Cc3ncc[nH]3)CC2)cc1 [Example 29, N,N-diethyl-4-{3-hydroxy[1-(1H-imidazol-2-ylmethyl)-4-piperidinyl]anilino}benzamide]	118.27	1.17	0.3
CCN(CC)C(=O)c1ccc(N(c2cccc(O)c2)C2CCN(Cc3ccccn3)CC2)cc1 [Example 30, N,N-diethyl-4-{3-hydroxy[1-(2-pyridinylmethyl)-4-piperidinyl]anilino}benzamide]	95.88	0.26	0.24
